From PubChem BioAssay AID1347070 (National Center for Advancing Translational Sciences (NCATS), 2019)
The list shows a part of the results, in another mix than the full data. Calls of active or inactive are those of the source. The call rests on the fitted dose curve; in most records, active means well fitted activation curve with a large enough effect; inconclusive means small, poorly fitted or top-dose-only effect; inactive means flat fitted curve, though single readings scatter.

test: qHTS of alpha-syn Inhibitors: NCGC Sytravon Library Screen; further: 0% is about no effect; settings: S. cerevisiae alpha-synuclein toxicity rescue, BacTiter-Glo growth, 24 h; at 46.1 µM (top of the series)
From the text: The goal of this project is to identify new chemical probes capable of reversing the toxicity associated with the Parkinson disease-related protein, alpha-synuclein. Compounds will be selected on their ability to restore growth in yeast cells expressing toxic levels of alpha-synuclein. These compounds will provide a complementary approach to deciphering the tangled mechanisms of toxicity and protection that we have uncovered through genome-wide genetic screens and are beginning to uncover in a large-scale proteomics analysis with mass spectroscopy. To this end, a miniaturized assay was developed to be screened against the Molecular Libraries Small Molecule Repository (MLSMR) to discover alpha-synuclein inhibitors. […] The phenotype of interest will be that of an Activator and this screen is run against the NCGC Sytravon Library collection. NIH Chemical Genomics Center [NCGC] NIH Molecular Libraries Probe Centers Network [MLPCN] MLPCN Grant: NS060957 Assay Submitter (PI): Susan Lindquist, Whitehead Institute/MIT
Dispense 2.5 microL yeast galactose medium per 1536-well plate, pin compound, dispense 2.5 microL alpha-synuclein expressing yeast in galactose medium at OD600=0.02 (pregrown in raffinose medium to mid-log phase) per well, incubate for 24 hr at 30 deg C, and cell growth will be measured using 5 microL of Bactiter/Glo reagent to entire plate and read using Luminescence Protocol in ViewLux.

SMILES | growth rescue (activation)
CP(=O)(Nc1ccccc1Br)Oc1ccccc1 (stereo unspecified) | inactive: -2.81%
COc1ccccc1OP(C)(=O)Nc1cc(Cl)ccc1C (stereo unspecified) | inactive: -50.5%
Cc1cc(C)cc(OP(C)(N)=O)c1 (stereo unspecified) | inactive: -18.4%
Cc1ccc(NP(C)(=O)Oc2ccccc2)c(C)c1 (stereo unspecified) | inactive: 9.17%
CP(=O)(Nc1ccc(SC(F)(F)F)cc1)Oc1ccccc1 (stereo unspecified) | inactive: 8.65%
CCCOc1ccc(NP(C)(=O)Oc2ccc(Cl)cc2)cc1 (stereo unspecified) | inactive: 13.4%
Cc1cc(-c2cccc3ccccc23)c(C)cn1.O=[N+]([O-])c1cc([N+](=O)[O-])c(O)c([N+](=O)[O-])c1 | inactive: -9.16%
O=[N+]([O-])c1ccc(OP2(=O)COCCO2)cc1 (stereo unspecified) | inactive: -4.96%
COc1ccc(NP(C)(=O)Oc2ccccc2OC)cc1 (stereo unspecified) | inactive: -1.24%
COc1ccc(OP(C)(=O)Nc2ccc(SC(F)(F)F)cc2)cc1 (stereo unspecified) | inactive: 1.59%
COc1ccccc1OP(C)(=O)Nc1ccc(Br)cc1 (stereo unspecified) | inactive: 5.54%
